Test [1] relates to tumour-infiltrating lymphocytes. Description: Multiplication of tumour-infiltrating lymphocytes from human colon carcinoma fragments. It is filed as cell-based. The procedure: The nodules of a human colon carcinoma which was removed by an operation from the large intestine is freed of connective tissue and normal parts of the intestine and cut into ca. 2×2×3 mm pieces. The tumour fragments are taken up in Iscove-modified DME medium (Gibco) which contains 15% FCS (BM) and divided equally into four culture dishes which are named A, B, C and D. IL-2 (20 ng/ml) is added to preparation A, aurintricarboxylic acid (4.2 μg/ml) is added to preparation B and IL-2 (20 ng/ml) plus aurintricarboxylic acid (4.2 μg/ml) is added to preparation C. Preparation D remains without additions. Three quarters of the respective culture media is removed each second day without changing the tissue or cell content. […] In the partial culture C the number of lymphocytes has increased 20-fold compared to A or B. The lymphocytes from C are isolated from the partial culture C and they are analysed on the basis of their surface markers.

Test [2] deals with Mononuclear cells from peripheral blood (PBMNC). Description: Multiplication of NK and T lymphocytes from mononuclear cells of human blood in serum-free medium. Type of test: cell-based. The procedure:
Mononuclear cells from peripheral blood (PBMNC) of a human donor are isolated by means of gradient centrifugation (lymphocyte separation medium, Boehringer Mannheim GmbH, Germany (BM)), washed twice with phosphate-buffered saline solution and taken up in DF medium at a density of 1×10^6 cells/ml and cultured in three separate preparations which are denoted A, B and C. Recombinant human IL-2 (BM, 20 ng/ml) and rh TGFβ1 (BM, 4 ng/ml) are added to preparation A, only IL-2 (20 ng/ml) is added to preparation B and only TGFβ1 (4 ng/ml) is added to preparation C. Half of the culture medium (+cytokine(s)) is renewed every second day and the cell count is adjusted to ca. 1×10^6 cells/ml during the first 7 days and subsequently to ca. […].

Take “IL-2: Human recombinant IL-2 (BM), 20 ng/ml, lymphocyte growth factor”: the “multiplication of lymphocytic cells migrated out of tumour fragments (microscopic control)” value in test [1] (Iscove-modified DME medium with 15% FCS, after 24-48 hours) was “not in the partial cultures A, B or D”. In addition, in test [1] (after a ten day culture), the “number of emigrated lymphocytes compared to day 2” value was “remained constant”. Further, the “multiplication of lymphoid cells” value in test [2] (over ca. 16 days) was under 50 fold. Moreover, the “growth behaviour of the cells (in words)” value in test [2] (serum-free DF medium, single cytokine) is “then stagnate and die after ca. 20 further days”.

Values taken from patent US6511848B2, “Process for producing and multiplying lymphocytes” (Winfried Albert, priority 1996, dated 2003).
